Values of other authors in publication PMC11634579, “Network pharmacology, experimental validation and pharmacokinetics integrated strategy to reveal pharmacological mechanism of goutengsan on methamphetamine dependence” (Frontiers in Pharmacology, 2024).

Set-up: method as in Ru et al., 2014
Conditions: obtained from TCMSP database; ref Ru et al., 2014; cited from earlier work

Compound | OB% (oral bioavailability) [%]
CC[C@H](CC[C@@H](C)[C@H]1CC[C@H]2[C@@H]3CC=C4C[C@@H](O)CC[C@]4(C)[C@H]3CC[C@]12C)C(C)C [Beta-sitosterol] | 36.91
CC[C@@H](CC[C@@H](C)[C@H]1CC[C@H]2[C@@H]3CC=C4C[C@@H](O)CC[C@]4(C)[C@H]3CC[C@]12C)C(C)C [Clionasterol] | 36.91
CC1(C)CC[C@]2(C(=O)O)CC[C@]3(C)C(=CC[C@@H]4[C@@]5(C)CC[C@H](O)[C@@](C)(CO)[C@@H]5CC[C@]43C)[C@@H]2C1 [Hederagenin] | 36.91
CC[C@H](CC[C@@H](C)[C@H]1CC[C@H]2[C@@H]3CC=C4C[C@@H](O)CC[C@]4(C)[C@H]3CC[C@]12C)C(C)C [Sitosterol] | 36.91
